Target: T1, Gal4/hFXR fusion protein (Homo sapiens, UniProt Q96RI1)
T1 sequence (Q96RI1 262-486 limits assumed): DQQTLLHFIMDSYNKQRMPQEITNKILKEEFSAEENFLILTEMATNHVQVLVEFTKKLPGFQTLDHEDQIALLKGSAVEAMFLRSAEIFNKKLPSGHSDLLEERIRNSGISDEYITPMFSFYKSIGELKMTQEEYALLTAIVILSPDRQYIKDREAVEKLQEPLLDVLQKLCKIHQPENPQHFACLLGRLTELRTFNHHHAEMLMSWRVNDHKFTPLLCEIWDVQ
Experiment: Gal4/hFXR fusion protein agonist activity in human 293 cells (luciferase reporter)
Type: cell-based
Conditions: Human 293 stable clone 2 expressing Gal4/hFXR, 24 hours incubation
Procedure: Characterization of Compounds for Gal4/hFXR Fusion Protein Agonist Activity in Human 293 Cells
• 1. Compounds to be tested are prepared as 2× stocks in assay medium. • 2. […] The supernatant is removed and the cells are resuspended in 1 ml assay medium. The cells are counted and diluted in assay medium to 200,000 cells per ml. The cells are then plated at 10,000 cells per well in Culturplate-96 plates in 50 μL assay medium. The cells are incubated at 37° C. for approximately 1 hour. • 3. […] All assays include 1 uM GW4064 as a reference standard. • 4. Cells are incubated for 24 hours at 37° C.
• 5. The medium is removed, and the cells are lysed in 25 uL lysis buffer (Promega, E3971). • 6. The plates are analyzed for luciferase activity with luciferase assay reagent (Promega E1483). Plates are read on Victor^3V instrument using the protocol “Shuguang Luciferase assay” (dispense volume=100 uL, plate type=“Packard Viewplate”, measurement height=8 mm from bottom of plate, 5 second read per well).
• 1. For agonist single point screening, data are analyzed in Excel. Each compound is tested in triplicate. The fold stimulation of each compound is calculated as RLUcpd/RLUbkgd. • 2. Comparison to GW4064 is made by the equation (RLUcpd/RLUbkgd)/(RLUGW4064/RLUbkgd) • 3. For agonist potency determinations, statistical analysis of the data is performed using a customized Excel/SAS program.

Question: How did the EC50 turn out when `CC(C)OC(=O)C1=CN(C(=O)C2CCCCC2)CC(C)(C)c2cc(C#N)[nH]c21` [Example 2, iso-Propyl 2-cyano-6-(cyclohexylcarbonyl)-4,4-dimethyl-1,4,5,6-tetrahydropyrrolo[2,3-d]azepine-8-carboxylate] was run?
Answer: 7 nM

Question: For `CC(C)OC(=O)C1=CN(C(=O)c2ccc(C#N)cc2)CC(C)(C)c2cc(C#N)[nH]c21` [Example 5, iso-Propyl 2-cyano-6-(4-cyanobenzoyl)-4,4-dimethyl-1,4,5,6-tetrahydropyrrolo[2,3-d]azepine-8-carboxylate], which EC50 is on record?
Answer: 42 nM

Question: With `CC(C)OC(=O)C1=CN(C(=O)c2cccc(Cl)c2)CC(C)(C)c2cc(C#N)[nH]c21` [Example 6, iso-Propyl 6-(3-chlorobenzoyl)-2-cyano-4,4-dimethyl-1,4,5,6-tetrahydropyrrolo[2,3-d]azepine-8-carboxylate] as the compound, how does the EC50 read?
Answer: 13 nM
